{"source": "paper PMC2217457", "about": "(The Journal of General Physiology, 2004)", "key": {"[1]": {"tested_on": "mouse AChR αL65V", "settings": "L2 (β2/α2) mutation/wild-type, choline"}, "[2]": {"tested_on": "mouse AChR αL40A", "settings": "L2 (β2/α2) mutation/wild-type, choline"}, "[3]": {"tested_on": "mouse AChR αL110V", "settings": "L2 (β2/α2) mutation/wild-type, choline"}, "[4]": {"tested_on": "mouse AChR αL146M", "settings": "L2 (β2/α2) mutation/wild-type, choline"}, "[5]": {"tested_on": "mouse AChR αR20L", "settings": "L2 (β2/α2) mutation/wild-type, choline"}, "[6]": {"tested_on": "mouse AChR αN141V", "settings": "L2 (β2/α2) mutation/wild-type, choline"}, "[7]": {"tested_on": "mouse AChR αL56A", "settings": "L2 (β2/α2) mutation/wild-type, choline"}, "[8]": {"tested_on": "mouse AChR αN47A", "settings": "choline"}, "[9]": {"tested_on": "mouse AChR αS143T", "settings": "L2 (β2/α2) mutation/wild-type, choline"}, "[10]": {"tested_on": "mouse AChR αD138E", "settings": "L2 (β2/α2) mutation/wild-type, choline"}, "[11]": {"tested_on": "mouse AChR αA122L", "settings": "L2 (β2/α2) mutation/wild-type, choline"}, "[12]": {"tested_on": "mouse AChR αR20A"}, "[13]": {"tested_on": "mouse AChR αM144A", "settings": "L2 (β2/α2) mutation/wild-type, choline"}, "[14]": {"tested_on": "mouse AChR αR55A", "settings": "L2 (β2/α2) mutation/wild-type, choline"}, "[15]": {"tested_on": "mouse AChR αV29L", "settings": "L2 (β2/α2) mutation/wild-type, choline"}, "[16]": {"tested_on": "mouse AChR αF137M", "settings": "L2 (β2/α2) mutation/wild-type, choline"}, "[17]": {"tested_on": "mouse AChR αR55W", "settings": "L2 (β2/α2) mutation/wild-type, choline"}, "[18]": {"tested_on": "mouse AChR αN47K", "settings": "choline"}, "[19]": {"tested_on": "mouse AChR αM144T", "settings": "L2 (β2/α2) mutation/wild-type, choline"}, "[20]": {"tested_on": "mouse AChR αM144I", "settings": "L2 (β2/α2) mutation/wild-type, choline"}, "[21]": {"tested_on": "mouse AChR αL146F", "settings": "L2 (β2/α2) mutation/wild-type, choline"}, "[22]": {"tested_on": "mouse AChR αL35A", "settings": "L2 (β2/α2) mutation/wild-type, choline"}, "[23]": {"tested_on": "mouse AChR αQ48A", "settings": "L2 (β2/α2) mutation/wild-type, choline"}, "[24]": {"tested_on": "mouse AChR αS143A", "settings": "L2 (β2/α2) mutation/wild-type, choline"}, "[25]": {"tested_on": "mouse AChR αM144L", "settings": "L2 (β2/α2) mutation/wild-type, choline"}, "[26]": {"tested_on": "mouse AChR αI116A", "settings": "L2 (β2/α2) mutation/wild-type, choline"}, "[27]": {"tested_on": "mouse AChR αV46I", "settings": "L2 (β2/α2) mutation/wild-type, choline"}}, "note": "Where two headings read alike, the source gives them in different places."}
{"smiles": "C[N+](C)(C)CCO", "note": "[Choline, choline]", "values": [{"measurement": "L2 ratio", "setting": "[1]", "value": 1.193}, {"measurement": "L2 ratio", "setting": "[2]", "value": 3.990}, {"measurement": "L2 ratio", "setting": "[3]", "value": 0.778}, {"measurement": "L2 ratio", "setting": "[4]", "value": 1.010}, {"measurement": "L2 ratio", "setting": "[5]", "value": 3.589}, {"measurement": "L2 ratio", "setting": "[6]", "value": 3.899}, {"measurement": "L2 ratio", "setting": "[7]", "value": 1.670}, {"measurement": "L2 ratio", "setting": "[8]; L2 (β2/α2) mutation/wild-type", "value": 13.396}, {"measurement": "channel opening rate constant, fold faster than the wt", "setting": "[8]", "value": "~9", "unit": "fold"}, {"measurement": "L2 ratio", "setting": "[9]", "value": 1.117}, {"measurement": "L2 ratio", "setting": "[10]", "value": 3.420}, {"measurement": "L2 ratio", "setting": "[11]", "value": 3.482}, {"measurement": "α2 Choline (diliganded channel-closing rate constant)", "setting": "[12]; 0.4 mM choline", "value": "3,122"}, {"measurement": "L2 ratio", "setting": "[12]; L2 (β2/α2) mutation/wild-type, choline", "value": 1.401}, {"measurement": "L2 ratio", "setting": "[13]", "value": 0.530}, {"measurement": "L2 ratio", "setting": "[14]", "value": 1.577}, {"measurement": "L2 ratio", "setting": "[15]", "value": 1.576}, {"measurement": "L2 ratio", "setting": "[16]", "value": 4.609}, {"measurement": "L2 ratio", "setting": "[17]", "value": 0.707}, {"measurement": "L2 ratio", "setting": "[18]; L2 (β2/α2) mutation/wild-type", "value": 5.333}, {"measurement": "channel opening rate constant, fold faster than the wt", "setting": "[18]", "value": "~6", "unit": "fold"}, {"measurement": "L2 ratio", "setting": "[19]", "value": 0.953}, {"measurement": "L2 ratio", "setting": "[20]", "value": 0.686}, {"measurement": "L2 ratio", "setting": "[21]", "value": 0.905}, {"measurement": "L2 ratio", "setting": "[22]", "value": 1.565}, {"measurement": "L2 ratio", "setting": "[23]", "value": 5.787}, {"measurement": "L2 ratio", "setting": "[23]; listed as choline", "value": "~6"}, {"measurement": "L2 ratio", "setting": "[24]", "value": 0.539}, {"measurement": "L2 ratio", "setting": "[25]", "value": 6.563}, {"measurement": "L2 ratio", "setting": "[26]", "value": 1.024}, {"measurement": "L2 ratio", "setting": "[27]", "value": 2.638}]}
